Data from paper PMC4420714 (Peptides, 2015).

Amino acid sequences for entries named in this document (tags omitted). Residues count along the entry.
UniProt P32241, 31-457, species assumed: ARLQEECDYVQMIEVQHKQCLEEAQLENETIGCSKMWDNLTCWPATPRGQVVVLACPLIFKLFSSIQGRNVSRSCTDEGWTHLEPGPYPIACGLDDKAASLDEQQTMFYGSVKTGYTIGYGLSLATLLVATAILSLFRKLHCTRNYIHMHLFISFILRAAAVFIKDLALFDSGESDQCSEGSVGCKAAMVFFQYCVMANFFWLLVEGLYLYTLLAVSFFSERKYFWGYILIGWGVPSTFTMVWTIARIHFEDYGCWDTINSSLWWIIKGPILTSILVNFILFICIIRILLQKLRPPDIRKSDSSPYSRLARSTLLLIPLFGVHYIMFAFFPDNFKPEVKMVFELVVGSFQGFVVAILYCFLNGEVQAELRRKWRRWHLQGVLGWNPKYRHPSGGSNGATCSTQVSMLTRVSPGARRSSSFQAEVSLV

Tests used:
PAC1-R [1] = molecular target: T1, PAC1-R (Homo sapiens, UniProt P41586); assay: Binding of 125I-PACAP27 to PAC1-R stably transfected NIH 3T3 cells; settings: for lower affinity for PAC1-R cells than VPAC2-R/PANC-1 cells / lower affinity for PAC1-R cells than VPAC1-R/PANC-1 cells: binding IC50 ratio; for lower affinity for PAC1-R cells than VPAC2-R/PANC-1 cells: VPAC2-R preferring; for decrease in affinity for PAC1-R cells compared to native PACAP38 (or PACAP27): ratio of binding IC50, analog vs native parent peptide; for higher affinity (selectivity) for PAC1-R cells over VPAC2-R/PANC-1 cells: IC50 VPAC2-R/PANC-1 divided by IC50 PAC1-R; for higher affinity (selectivity) for PAC1-R cells over VPAC2-R/PANC-1 cells / higher affinity (selectivity) for PAC1-R cells over VPAC1-R/PANC-1 cells: binding; for higher affinity (selectivity) for PAC1-R cells over VPAC1-R/PANC-1 cells: IC50 VPAC1-R/PANC-1 divided by IC50 PAC1-R; for lower affinity for PAC1-R cells than VPAC1-R/PANC-1 cells: VPAC1-R preferring; for IC50: read-out: IC50 PAC1-R
T1 sequence (P41586 21-468): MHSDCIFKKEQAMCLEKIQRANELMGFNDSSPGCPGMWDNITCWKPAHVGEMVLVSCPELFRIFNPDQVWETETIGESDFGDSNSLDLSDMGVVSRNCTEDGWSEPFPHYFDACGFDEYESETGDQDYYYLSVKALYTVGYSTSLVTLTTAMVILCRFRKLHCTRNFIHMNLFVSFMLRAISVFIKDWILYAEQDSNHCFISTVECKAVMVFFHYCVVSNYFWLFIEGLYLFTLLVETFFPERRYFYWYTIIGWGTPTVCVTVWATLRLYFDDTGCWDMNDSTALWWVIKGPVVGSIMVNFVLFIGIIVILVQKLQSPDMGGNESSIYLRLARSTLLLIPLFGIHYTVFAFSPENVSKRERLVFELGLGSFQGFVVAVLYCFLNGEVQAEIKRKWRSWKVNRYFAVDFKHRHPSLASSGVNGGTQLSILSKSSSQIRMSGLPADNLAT

VPAC1-R [2] = molecular target: T2, VPAC1-R (Homo sapiens, UniProt P32241); assay: Binding of 125I-VIP to VPAC1-R/PANC-1 cells; settings: ratio of binding IC50, analog vs native parent peptide
VPAC2-R [3] = molecular target: T3, VPAC2-R (Homo sapiens, UniProt P41587); assay type: binding; settings: read-out: IC50 VPAC2-R, Sup-T1; Sup-T1 cells, 75 pM 125I-Ro 25-1553, 37°C
T3 sequence (P41587 24-438): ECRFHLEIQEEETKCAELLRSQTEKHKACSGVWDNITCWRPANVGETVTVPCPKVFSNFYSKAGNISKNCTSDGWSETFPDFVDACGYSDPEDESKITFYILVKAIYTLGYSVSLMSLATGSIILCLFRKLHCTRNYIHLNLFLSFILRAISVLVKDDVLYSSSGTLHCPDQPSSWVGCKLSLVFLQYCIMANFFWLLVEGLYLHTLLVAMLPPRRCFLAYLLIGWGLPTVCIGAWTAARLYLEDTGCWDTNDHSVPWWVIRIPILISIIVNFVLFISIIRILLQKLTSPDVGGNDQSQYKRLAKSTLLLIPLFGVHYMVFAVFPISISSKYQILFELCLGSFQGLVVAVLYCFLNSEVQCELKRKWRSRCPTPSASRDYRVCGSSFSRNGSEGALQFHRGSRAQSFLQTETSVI

PAC1-R [4] = molecular target: T1, PAC1-R; assay: [3H]cAMP generation in PAC1-R cells; assay type: cell-based; settings: for [3H]cAMP PAC1-R % max (agonist class): relative to maximal stimulation by PACAP38, up to 1 µM; for EC50: read-out: [3H]cAMP PAC1-R EC50; for greater affinity than potency, PAC1-R cells: EC50 cAMP over binding IC50
VPAC1-R [5] = molecular target: T2, VPAC1-R; assay: [3H]cAMP generation in VPAC1-R/PANC-1 cells; assay type: cell-based; settings: for [3H]cAMP VPAC1-R/PANC-1 % max (agonist class) / EC50: VPAC1-R/PANC-1 cells; for [3H]cAMP VPAC1-R/PANC-1 % max (agonist class): relative to PACAP38, up to 1 µM; for EC50: read-out: [3H]cAMP VPAC1-R/PANC-1 EC50; for greater affinity than potency for stimulating cAMP generation, VPAC1-R/PANC-1 cells: EC50 cAMP over binding IC50
VPAC1-R [6] = molecular target: T2, VPAC1-R; assay: [3H]cAMP generation in T47D cells; assay type: cell-based; settings: T47D cells; for [3H]cAMP T47D % max (agonist class): relative to PACAP38, up to 1 µM; for EC50: read-out: [3H]cAMP T47D EC50
VPAC2-R [7] = molecular target: T3, VPAC2-R; assay: [3H]cAMP generation in VPAC2-R/PANC-1 cells; assay type: cell-based; settings: read-out: [3H]cAMP VPAC2-R/PANC-1 EC50

Substance	decrease in affinity for PAC1-R cells compared to native PACAP38 (or PACAP27) (PAC1-R [1])	decrease in affinity for VPAC1-R/PANC-1 cells compared to native PACAP38 (or PACAP27, VIP) (VPAC1-R [2])	IC50 (VPAC2-R [3])	[3H]cAMP PAC1-R % max (agonist class) (PAC1-R [4]; PAC1-R cells)	EC50 (PAC1-R [4]; PAC1-R cells)	EC50 (VPAC1-R [5])	EC50 (VPAC1-R [6])	EC50 (VPAC2-R [7]; VPAC2-R/PANC-1 cells)	higher potency for PAC1-R cells compared to VPAC1-R/PANC-1 cells (PAC1-R [4]; cAMP generation EC50 ratio)	higher potency for PAC1-R cells compared to VPAC2-R/PANC-1 cells (PAC1-R [4]; cAMP generation EC50 ratio)	greater affinity than potency for stimulating cAMP generation, VPAC1-R/PANC-1 cells (VPAC1-R [5])	other results
[Pip^3,Ala^14,17,Aib^16,28,Lys^34,D-Lys^38]PACAP38 [Peptide P39]	> 1,000 fold	> 1,000 fold	> 1000 nM	Ag (1 µM, 14)	> 1000 nM	> 1000 nM	> 1000 nM	> 1000 nM	–	–	–	lower affinity for PAC1-R cells than VPAC2-R/PANC-1 cells (PAC1-R [1]): 2–4 fold; [3H]cAMP VPAC1-R/PANC-1 % max (agonist class) (VPAC1-R [5]): no agonist activity; also recorded: No Act; [3H]cAMP T47D % max (agonist class) (VPAC1-R [6]): No Act
[Me-Asp^3,Aib^16,28,Lys^34,D-Lys^38]PACAP38 [Peptide P33]	100–300 fold	30-to-100 fold	–	–	–	–	–	–	16–50 fold and 15-to-666 fold	22–55 fold	–	–
[N-Ac-His^1,Pip^3]PACAP38 [Peptide P27]	100–300 fold	–	87 ± 2 nM	no agonist activity; also recorded: No Act	> 1000 nM	182 ± 9 nM	> 1000 nM	> 1000 nM	–	–	–	higher affinity (selectivity) for PAC1-R cells over VPAC2-R/PANC-1 cells (PAC1-R [1]): same affinity; greater affinity than potency, PAC1-R cells (PAC1-R [4]): 1.2- to 64 fold; [3H]cAMP VPAC1-R/PANC-1 % max (agonist class) (VPAC1-R [5]): Ag (1 µM, 72); [3H]cAMP T47D % max, agonist activity at 1 µM, still increasing (VPAC1-R [6]; at 1 µM): Ag (1 µM, 18) % max; [3H]cAMP T47D % max (agonist class) (VPAC1-R [6]): Ag (1 µM, 18)
[Pip^3,Aib^16,28,Ala^17,20,Lys^34,D-Lys^38]PACAP38 [Peptide P41]	–	> 1,000 fold	> 1000 nM	no agonist activity; also recorded: No Act	> 1000 nM	> 1000 nM	> 1000 nM	> 1000 nM	–	–	–	[3H]cAMP VPAC1-R/PANC-1 % max (agonist class) (VPAC1-R [5]): no agonist activity; also recorded: No Act; [3H]cAMP T47D % max (agonist class) (VPAC1-R [6]): No Act
[Ala^16,17,D-Lys^38]PACAP38 [Peptide P23]	4–5 fold	–	5.62 ± 0.28 nM	–	0.35 ± 0.02 nM	3.8 ± 0.33 nM	12.9 ± 1 nM	5.37 ± 0.36 nM	6–15 fold	7-to-15 fold	1.2–65.2 fold	higher affinity (selectivity) for PAC1-R cells over VPAC1-R/PANC-1 cells (PAC1-R [1]): minimal to no selectivity; higher affinity (selectivity) for PAC1-R cells over VPAC2-R/PANC-1 cells (PAC1-R [1]): 2 fold; lower affinity for PAC1-R cells than VPAC1-R/PANC-1 cells (PAC1-R [1]): 6–10 fold
[D-Ser^2]PACAP27 [Peptide P4]	–	–	72.4 ± 6.5 nM	–	–	1.58 ± 0.19 nM	3.39 ± 0.29 nM	–	–	–	–	IC50 (PAC1-R [1]): 55 to 69 nM and 54.9 nM; EC50 (PAC1-R [4]): 0.47 ± 0.03 nM; EC50 (VPAC2-R [7]): 7.41 ± 0.32 nM
[N-Ac-His^1,Pip^3,Aib^16,Ala^17]PACAP27 [Peptide P8]	> 1,000 fold	–	> 1000 nM	no agonist activity; also recorded: No Act	> 1000 nM	> 1000 nM	> 1000 nM	> 1000 nM	–	–	1.2–65.2 fold	lower affinity for PAC1-R cells than VPAC1-R/PANC-1 cells (PAC1-R [1]): 6–10 fold; lower affinity for PAC1-R cells than VPAC2-R/PANC-1 cells (PAC1-R [1]): 2–9 fold
[Pro^3]VIP [Peptide P50]	–	–	> 1000 nM	–	> 1000 nM	324 ± 32 nM	468 ± 22 nM	933 ± 21 nM	–	–	–	–
[Lys^34]PACAP38 [Peptide P24]	5–10 fold	–	4.2 ± 0.16 nM	–	0.29 ± 0.01 nM	2.88 ± 0.16 nM	5.5 ± 0.35 nM	2.57 ± 0.17 nM	6–15 fold	7-to-15 fold	1.2–65.2 fold	[3H]cAMP T47D % max of partial agonist (VPAC1-R [6]; partial agonist maximum): pAg (85) % max; [3H]cAMP T47D % max (agonist class) (VPAC1-R [6]): pAg (85)
[Iac^1,Ala^16,17,D-Lys^38]PACAP38 [Peptide P29]	–	3–20 fold	–	–	–	–	–	–	16–50 fold	22–55 fold	–	–
[Pip^3,Aib^16,Ala^17]PACAP27 [Peptide P7]	> 1,000 fold	–	> 1000 nM	no agonist activity; also recorded: No Act	> 1000 nM	> 1000 nM	> 1000 nM	> 1000 nM	–	–	1.2–65.2 fold	lower affinity for PAC1-R cells than VPAC1-R/PANC-1 cells (PAC1-R [1]): 6–10 fold
[Sar^4]PACAP27 [Peptide P22]	15–25 fold	–	302 ± 15 nM	inactive; also recorded: Ag (1 µM, 50)	–	> 1000 nM	> 1000 nM	> 1000 nM	–	–	1.2–65.2 fold	lower affinity for PAC1-R cells than VPAC2-R/PANC-1 cells (PAC1-R [1]): 2 fold; IC50 (PAC1-R [1]): 55 to 69 nM and 69 nM; greater affinity than potency, PAC1-R cells (PAC1-R [4]): 1.2- to 64 fold; EC50 (PAC1-R [4]): > 1000 nM
[Me-Lys^15]PACAP27 [Peptide P2]	> 1,000 fold	–	–	–	–	–	–	–	2-to-5 fold	12–140 fold	1.2–65.2 fold	lower affinity for PAC1-R cells than VPAC1-R/PANC-1 cells (PAC1-R [1]): 6–10 fold; lower affinity for PAC1-R cells than VPAC2-R/PANC-1 cells (PAC1-R [1]): 2–9 fold
[Iac^1]PACAP38 [Peptide P44]	5–10 fold	2–10 fold	–	–	–	–	–	–	–	–	–	higher affinity (selectivity) for PAC1-R cells over VPAC1-R/PANC-1 cells (PAC1-R [1]): minimal to no selectivity; greater affinity than potency, PAC1-R cells (PAC1-R [4]): 1.2- to 64 fold; [3H]cAMP VPAC1-R/PANC-1 % max (agonist class) (VPAC1-R [5]): Ag (1 µM, 85)
PACAP27 [reference compound]	–	–	24.5 ± 1 nM	–	–	0.2 ± 0.01 nM	0.79 ± 0.07 nM	–	–	–	–	IC50 (PAC1-R [1]): 2.82 ± 0.17 nM; EC50 (PAC1-R [4]): 0.03 nM; EC50 (VPAC2-R [7]): 1 ± 0.04 nM
[Pro^3]PACAP27 [Peptide P5]	> 1,000 fold	–	> 1000 nM	Ag (1 µM, 55)	776 ± 67 nM	> 1000 nM	> 1000 nM	> 1000 nM	2-to-5 fold	2–5 fold	1.2–65.2 fold	lower affinity for PAC1-R cells than VPAC1-R/PANC-1 cells (PAC1-R [1]): 6–10 fold; lower affinity for PAC1-R cells than VPAC2-R/PANC-1 cells (PAC1-R [1]): 2–9 fold
[Aib^2]PACAP38 [Peptide P15]	–	2–10 fold	3.16 ± 0.15 nM	–	–	–	16.6 ± 0.9 nM	11.7 ± 0.7 nM	–	–	–	IC50 (PAC1-R [1]): 4.68 ± 0.29 nM; higher potency for PAC1-R cells compared to VPAC1-R/PANC-1 cells (PAC1-R [4]): 2-to-5 fold; higher potency for PAC1-R cells compared to VPAC2-R/PANC-1 cells (PAC1-R [4]): 12–140 fold; EC50 (PAC1-R [4]): 0.46 ± 0.02 nM
vasoactive intestinal peptide [VIP, reference compound]	–	–	–	–	174 ± 10 nM	–	–	–	–	–	–	–
[Sar^3]PACAP27 [Peptide P6]	> 1,000 fold	–	> 1000 nM	Ag (1 µM, 63)	602 ± 25 nM	22.9 ± 0.8 nM	776 ± 49 nM	> 1000 nM	–	–	–	–

“And” between values parts separate entries of the source, which are not always exact repeats. Equal entries are not always repeated. “Also recorded” adds a separate entry of the source. Where two headings read alike, the source gives them in different places.
